Measurements published in PubChem BioAssay AID588351 (The Scripps Research Institute Molecular Screening Center, 2011).
This is a selection; strong and weak results do not stand in their true shares. Activity calls are given as the source filed them.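 How the source made its calls: active means mean activation above a set limit taken from the primary screen (cut at about 8% in these data); inactive means the rest.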

experiment: FXN GAA850 promoter activators in reporter cells, confirmation, cell-based, luminescence, HEK293 lucGAA850, triplicate (AID 588351); details: HEK293 lucGAA850 FXN promoter luciferase reporter, 24 h; at 6 µM; hits give high values; 100% = activation by SAHA;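 further: 0% = DMSO wells and 100% = 10 µM SAHA wells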

| Structure (SMILES) | activation |
| --- | --- |
| O=[N+]([O-])c1cc([N+](=O)[O-])c(NCC2CCS(=O)(=O)C2)c([N+](=O)[O-])c1 (stereo unspecified) | active: 26.9% |
